These are literature values, as cited in PMC10290130, “The potential of phenothiazinium dyes as cytotoxicity markers in cisplatin-treated cells” (Scientific Reports, 2023).

The data set deals with Vero cells. Conditions: read-out: IC50 (cytotoxicity); 72 h of incubation; cited from earlier work.

Usually IC50 stands for the midpoint of a concentration-inhibition curve. On to `CN(C)c1ccc2nc3ccc(=[N+](C)C)cc-3sc2c1` [MB, 3,7-bis[dimethylamino]phenothiazin-5-ium chloride], for which the IC50 was more than 62.5 µM.
